Patent publication US10266526B2, “Substituted 1,2,3-triazoles as SMYD inhibitors for treating cancer” (EPIZYME, INC., priority 2014, dated 2019)
pIC50: −log10 of the molar value. Like-named read-outs stand apart in the source and are kept apart here.

Chains of the proteins cited; added tags and fusions are not shown. Lines headed by an entry give the natural chain unless they say otherwise; changes in a name come on top.
UniProt Q9NRG4: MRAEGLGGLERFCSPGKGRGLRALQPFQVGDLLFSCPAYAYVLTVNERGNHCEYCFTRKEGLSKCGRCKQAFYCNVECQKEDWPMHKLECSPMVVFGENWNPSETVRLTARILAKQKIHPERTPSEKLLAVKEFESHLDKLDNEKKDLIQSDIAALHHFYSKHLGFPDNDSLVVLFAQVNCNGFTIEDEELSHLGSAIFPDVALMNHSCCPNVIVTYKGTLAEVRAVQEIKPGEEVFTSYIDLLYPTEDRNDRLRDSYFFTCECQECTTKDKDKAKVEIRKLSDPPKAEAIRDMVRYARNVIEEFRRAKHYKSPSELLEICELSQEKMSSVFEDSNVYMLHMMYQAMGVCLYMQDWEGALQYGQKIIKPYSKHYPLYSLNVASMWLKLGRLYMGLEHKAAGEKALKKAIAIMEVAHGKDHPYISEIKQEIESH

Target: SMYD2 (Homo sapiens (Human), UniProt Q9NRG4)
Test: SMYD2 biochemical assay (SMYD2 enzyme assay on peptide substrate, 3H-SAM Flashplate)
[1] = SMYD2 Biochem IC50, IC50 values are an average of n = 1 to n = 50
[2] = read-out: SMYD2 Biochem IC50, IC50 values are an average of n = 1 to n = 50

| pIC50 [1] | pIC50 [2] | Structure (SMILES) |
| --- | --- | --- |
| 6.46 |  | COc1ccccc1[C@H](C)N1CC(NC(=O)c2cn(C3CC3)nn2)C1 (single isomer, unassigned) [compound 780] |
|  | 5.66 | CC(c1ccc(Cl)cc1)N1CC(NC(=O)c2cn(C3CC3)nn2)C1 (stereo not drawn) [compound 676, N-{1-[1-(4-chlorophenyl)ethyl]azetidin-3-yl}-1-cyclopropyl-1H-1,2,3-triazole-4-carboxamide] |
|  | 5.54 | CC(c1ccc(F)cc1F)N1CC(NC(=O)c2cn(C3CC3)nn2)C1 (stereo not drawn) [compound 677, 1-cyclopropyl-N-{1-[1-(2,4-difluorophenyl)ethyl]azetidin-3-yl}-1H-1,2,3-triazole-4-carboxamide] |
|  | 6.18 | COc1ccccc1C(C)N1CC(NC(=O)c2cn(C3CC3)nn2)C1 (stereo not drawn) [compound 682, 1-cyclopropyl-N-{1-[1-(2-methoxyphenyl)ethyl]azetidin-3-yl}-1H-1,2,3-triazole-4-carboxamide] |
|  | 6.10 | COc1ccccc1C(C)N1CC(NC(=O)c2cn(C3CC3)nn2)C1 (stereo not drawn) [compound 683, 1-cyclopropyl-N-{1-[1-(2-methoxyphenyl)ethyl]azetidin-3-yl}-1H-1,2,3-triazole-4-carboxamide] |
|  | 5.45 | CC(c1ccccn1)N1CC(NC(=O)c2cn(C3CC3)nn2)C1 (stereo not drawn) [compound 685, 1-cyclopropyl-N-{1-[1-(pyridin-2-yl)ethyl]azetidin-3-yl}-1H-1,2,3-triazole-4-carboxamide] |
|  | 5.54 | CC(c1ccc(F)c(F)c1)N1CC(NC(=O)c2cn(C3CC3)nn2)C1 (stereo not drawn) [compound 687, 1-cyclopropyl-N-{1-[1-(3,4-difluorophenyl)ethyl]azetidin-3-yl}-1H-1,2,3-triazole-4-carboxamide] |
|  | 6.00 | CC(c1cccc(Cl)c1)N1CC(NC(=O)c2cn(C3CC3)nn2)C1 (stereo not drawn) [compound 695, N-{1-[1-(3-chlorophenyl)ethyl]azetidin-3-yl}-1-cyclopropyl-1H-1,2,3-triazole-4-carboxamide] |
|  | 5.67 | CC(c1cccc(OCCN(C)C)c1)N1CC(NC(=O)c2cn(C3CC3)nn2)C1 (stereo not drawn) [compound 706, 1-cyclopropyl-N-[1-(1-{3-[2-(dimethylamino)ethoxy]phenyl}ethyl)azetidin-3-yl]-1H-1,2,3-triazole-4-carboxamide] |
|  | 5.13 | CC(c1ccc(Cl)c(C(F)(F)F)c1)N1CC(NC(=O)c2cn(C3CC3)nn2)C1 (stereo not drawn) [compound 712, N-(1-{1-[4-chloro-3-(trifluoromethyl)phenyl]ethyl}azetidin-3-yl)-1-cyclopropyl-1H-1,2,3-triazole-4-carboxamide] |
|  | 6.70 | CC[C@@H](c1ccccc1)N1CC(NC(=O)c2cn(C3CC3)nn2)C1 [compound 722, 1-cyclopropyl-N-{1-[(1S)-1-phenylpropyl]azetidin-3-yl}-1H-1,2,3-triazole-4-carboxamide] |
|  | 5.55 | CC(c1cccc(C(F)(F)F)c1)N1CC(NC(=O)c2cn(C3CC3)nn2)C1 (stereo not drawn) [compound 748, 1-cyclopropyl-N-(1-{1-[3-(trifluoromethyl)phenyl]ethyl}azetidin-3-yl)-1H-1,2,3-triazole-4-carboxamide] |

Second part, the molecule before the results:

| Structure (SMILES) | pIC50 [1] | pIC50 [2] |
| --- | --- | --- |
| C[C@@H](c1cc(Cl)ccc1Cl)N1CC(NC(=O)c2cn(C3CC3)nn2)C1 (single isomer, unassigned) [compound 779] | 6.96 |  |
| COc1cccc([C@@H](C)N2CC(NC(=O)c3cn(C4CC4)nn3)C2)c1OC (single isomer, unassigned) [compound 804] | 7.35 |  |
| CCN1CC(NC(=O)c2cn(C3CC3)nn2)C1 [compound 661, 1-cyclopropyl-N-(1-ethylazetidin-3-yl)-1H-1,2,3-triazole-4-carboxamide] |  | 5.80 |
| O=C(NC1CN(C2CC2)C1)c1cn(C2CC2)nn1 [compound 664, 1-cyclopropyl-N-(1-cyclopropylazetidin-3-yl)-1H-1,2,3-triazole-4-carboxamide] |  | 5.83 |
| CCC(c1ccccc1)N1CC(NC(=O)c2cn(C3CC3)nn2)C1 (stereo not drawn) [compound 675, 1-cyclopropyl-N-[1-(1-phenylpropyl)azetidin-3-yl]-1H-1,2,3-triazole-4-carboxamide] |  | 6.31 |
| CC(c1cc(Cl)ccc1Cl)N1CC(NC(=O)c2cn(C3CC3)nn2)C1 (stereo not drawn) [compound 696, 1-cyclopropyl-N-{1-[1-(2,5-dichlorophenyl)ethyl]azetidin-3-yl}-1H-1,2,3-triazole-4-carboxamide] |  | 6.73 |
| CC(c1cc(Cl)ccc1Cl)N1CC(NC(=O)c2cn(C3CC3)nn2)C1 (stereo not drawn) [compound 697, 1-cyclopropyl-N-{1-[1-(2,5-dichlorophenyl)ethyl]azetidin-3-yl}-1H-1,2,3-triazole-4-carboxamide] |  | 6.72 |
| CC(c1cncnc1)N1CC(NC(=O)c2cn(C3CC3)nn2)C1 (stereo not drawn) [compound 699, 1-cyclopropyl-N-{1-[1-(pyrimidin-5-yl)ethyl]azetidin-3-yl}-1H-1,2,3-triazole-4-carboxamide] |  | 5.02 |
| CN(C)CCOc1cccc(CN2CC(NC(=O)c3cn(C4CC4)nn3)C2)c1 [compound 736, 1-cyclopropyl-N-[1-({3-[2-(dimethylamino)ethoxy]phenyl}methyl)azetidin-3-yl]-1H-1,2,3-triazole-4-carboxamide] |  | 5.55 |
| COc1cccc2c1CCCC2N1CC(NC(=O)c2cn(C3CC3)nn2)C1 (stereo not drawn) [compound 738, 1-cyclopropyl-N-[1-(5-methoxy-1,2,3,4-tetrahydronaphthalen-1-yl)azetidin-3-yl]-1H-1,2,3-triazole-4-carboxamide] |  | 5.23 |
| COc1ccc2c(c1OC)CCC2N1CC(NC(=O)c2cn(C3CC3)nn2)C1 (stereo not drawn) [compound 744, 1-cyclopropyl-N-[1-(4,5-dimethoxy-2,3-dihydro-1H-inden-1-yl)azetidin-3-yl]-1H-1,2,3-triazole-4-carboxamide] |  | 4.62 |
| CCC(c1nccs1)N1CC(NC(=O)c2cn(C3CC3)nn2)C1 (stereo not drawn) [compound 751, 1-cyclopropyl-N-{1-[1-(1,3-thiazol-2-yl)propyl]azetidin-3-yl}-1H-1,2,3-triazole-4-carboxamide] |  | 4.68 |
| COCC(c1ccccc1)N1CC(NC(=O)c2cn(C3CC3)nn2)C1 (stereo not drawn) [compound 752, 1-cyclopropyl-N-[1-(2-methoxy-1-phenylethyl)azetidin-3-yl]-1H-1,2,3-triazole-4-carboxamide] |  | 5.22 |
| CNCc1cccc(CN2CC(NC(=O)c3cn(C4CC4)nn3)C2)c1 [compound 753, 1-cyclopropyl-N-[1-({3-[(methylamino)methyl]phenyl}methyl)azetidin-3-yl]-1H-1,2,3-triazole-4-carboxamide] |  | 4.80 |
| CC(C)(c1ccccc1)N1CC(NC(=O)c2cn(C3CC3)nn2)C1 [compound 757, 1-cyclopropyl-N-[1-(2-phenylpropan-2-yl)azetidin-3-yl]-1H-1,2,3-triazole-4-carboxamide] |  | 5.41 |
| CC(Cc1ccccc1)N1CC(NC(=O)c2cn(C3CC3)nn2)C1 (stereo not drawn) [compound 759, 1-cyclopropyl-N-[1-(1-phenylpropan-2-yl)azetidin-3-yl]-1H-1,2,3-triazole-4-carboxamide] |  | 5.86 |
| CC(C)C(c1ccc(F)cc1)N1CC(NC(=O)c2cn(C3CC3)nn2)C1 (stereo not drawn) [compound 760, 1-cyclopropyl-N-{1-[1-(4-fluorophenyl)-2-methylpropyl]azetidin-3-yl}-1H-1,2,3-triazole-4-carboxamide] |  | 5.48 |
| COc1cccc(C(C)N2CC(NC(=O)c3cn(C4CC4)nn3)C2)c1OC (stereo not drawn) [compound 763, 1-cyclopropyl-N-{1-[1-(2,3-dimethoxyphenyl)ethyl]azetidin-3-yl}-1H-1,2,3-triazole-4-carboxamide] |  | 7.05 |
